Experimental findings from article PMC7723054 are described below.

This is one part of the list.

T1: LIN28A (human?, UniProt Q9H9Z2 1-209)
T1 sequence: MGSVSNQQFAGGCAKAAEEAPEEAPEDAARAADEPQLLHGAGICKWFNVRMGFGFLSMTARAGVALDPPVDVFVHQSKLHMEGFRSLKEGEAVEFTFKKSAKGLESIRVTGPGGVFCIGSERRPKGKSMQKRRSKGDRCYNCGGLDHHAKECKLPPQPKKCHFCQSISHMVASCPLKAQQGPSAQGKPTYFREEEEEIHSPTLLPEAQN

T2: CIRBP (Homo sapiens, UniProt Q14011 1-172)
T2 sequence: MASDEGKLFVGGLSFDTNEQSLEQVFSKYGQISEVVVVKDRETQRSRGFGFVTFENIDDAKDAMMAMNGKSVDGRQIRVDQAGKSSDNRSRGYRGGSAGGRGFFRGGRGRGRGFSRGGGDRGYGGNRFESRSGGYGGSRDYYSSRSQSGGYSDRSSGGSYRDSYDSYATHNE

T3: DHX36 (Homo sapiens, UniProt Q9H2U1 1-1008)
T3 sequence: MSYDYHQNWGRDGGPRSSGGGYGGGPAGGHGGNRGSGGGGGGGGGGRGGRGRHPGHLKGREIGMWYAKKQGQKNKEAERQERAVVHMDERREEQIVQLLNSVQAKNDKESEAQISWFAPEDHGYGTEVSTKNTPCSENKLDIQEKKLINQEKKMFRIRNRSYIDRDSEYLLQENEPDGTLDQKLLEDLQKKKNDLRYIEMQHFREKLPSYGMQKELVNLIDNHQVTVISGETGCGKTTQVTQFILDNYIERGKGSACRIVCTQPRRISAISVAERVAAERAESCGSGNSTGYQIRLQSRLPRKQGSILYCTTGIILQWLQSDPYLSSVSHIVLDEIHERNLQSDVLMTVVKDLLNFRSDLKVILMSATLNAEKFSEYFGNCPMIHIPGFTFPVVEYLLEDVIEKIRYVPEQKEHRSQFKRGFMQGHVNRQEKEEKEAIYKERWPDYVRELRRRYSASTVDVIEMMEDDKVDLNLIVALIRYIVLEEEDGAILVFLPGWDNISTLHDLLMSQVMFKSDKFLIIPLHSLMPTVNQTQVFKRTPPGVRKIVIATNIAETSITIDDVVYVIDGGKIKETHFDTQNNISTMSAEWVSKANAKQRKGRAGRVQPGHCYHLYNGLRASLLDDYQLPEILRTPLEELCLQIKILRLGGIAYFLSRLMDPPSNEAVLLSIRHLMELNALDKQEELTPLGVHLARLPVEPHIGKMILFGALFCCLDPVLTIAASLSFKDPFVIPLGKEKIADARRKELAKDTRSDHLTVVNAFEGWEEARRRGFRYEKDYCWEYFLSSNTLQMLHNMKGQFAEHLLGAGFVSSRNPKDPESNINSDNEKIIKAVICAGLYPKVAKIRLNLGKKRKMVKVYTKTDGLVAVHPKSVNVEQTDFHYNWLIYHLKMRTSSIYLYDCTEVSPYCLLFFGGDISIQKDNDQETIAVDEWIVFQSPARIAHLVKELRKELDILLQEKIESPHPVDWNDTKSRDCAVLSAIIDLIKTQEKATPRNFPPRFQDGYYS

B1: hsa-mir-4676 (structured_RNA)
RNA: GGGAAUUGUUACACGCGACUAGGAGCGCGGUGUACGAAGUUUCAGCAGUGAGUUGAUUACUUCUCACUGCUGAAGCUUCGUGCAC
B2: hsa-mir-5584 (structured_RNA)
RNA: GGGACGAGCCUGUCAAGUAAUGCCAUCUGGUGUACGAAGUUUCAGCACUAGAUUUGAAUCCAGACCUUUAGUGCUGAAGCUUCGUGCAC
B3: hsa-mir-548ax (structured_RNA)
RNA: GGGACCGACCGUGCGAAGAAAUUAUAGUGGUGUACGAAGUUUCAGCGCCAUGGAAAGUAAUGGCGCUGAAGCUUCGUGCAC
B4: hsa-mir-4437 (structured_RNA)
RNA: GGGAAGAGUUCGUUAGCUUGCCCAAAACGGUGUACGAAGUUUCAGCUCCACAAGGAGGGGAUGACCCUUGUGGGGCUGAAGCUUCGUGCAC
B5: hsa-mir-199b (structured_RNA)
RNA: GGGAACGAGGAGGUUUAUUUAAGAAGUCGGUGUACGAAGUUUCAGCCUGUUCAGGACUCCCAAAUUGUACAGGCUGAAGCUUCGUGCAC
B6: hsa-mir-2053 (structured_RNA)
RNA: GGGAACGUUGAAUUGACGCGCUUAGCACGGUGUACGAAGUUUCAGCACAUUUGCAACCUGUGAAGAUGCAAAACUUUAAGUGUGCUGAAGCUUCGUGCAC
B7: hsa-mir-6087 (structured_RNA)
RNA: GGGAAGAUGAUAGGCUCCACCCUGUAUCGGUGUACGAAGUUUCAGCGAGCCCUGAGGGGCUCGCUGAAGCUUCGUGCAC
B8: hsa-mir-5572 (structured_RNA)
RNA: GGGAACCUCACGAUGCACUUCGGUAGGAGGUGUACGAAGUUUCAGCCAGCCUGGGGCAUCGGUUGGCUGAAGCUUCGUGCAC
B9: hsa-mir-4784 (structured_RNA)
RNA: GGGAAAGCGGGUGAGACAGUAAUCAACCGGUGUACGAAGUUUCAGCCUGAGAGUGUCAUGGUGGAGCCUCCGGCUGAAGCUUCGUGCAC
B10: hsa-mir-548a-3 (structured_RNA)
RNA: GGGAAACAGCAAAUCAGGUCUACGCGACGGUGUACGAAGUUUCAGCUUUACCAUUACUUUCAAUGGCAAAGCUGAAGCUUCGUGCAC
B11: hsa-mir-4329 (structured_RNA)
RNA: GGGAGUAUUAAUGGGCCGGGACACUUUAGGUGUACGAAGUUUCAGCUGGAGUUUUUUUUUCCUCCUGGCUGAAGCUUCGUGCAC
B12: hsa-mir-7157 (structured_RNA)
RNA: GGGAACCCGGCUCUGUCUCGGAGUAUGUGGUGUACGAAGUUUCAGCCAGAGAUGAAAUUGGGACUCCUCUGCUGAAGCUUCGUGCAC
B13: hsa-mir-3154 (structured_RNA)
RNA: GGGAAUCGACGAUUAAGUGGCGAGACUUGGUGUACGAAGUUUCAGCCCUGCCACGUCAAAGGAGGCAGAGCUGAAGCUUCGUGCAC
B14: hsa-mir-1908 (structured_RNA)
RNA: GGGAACGGAGGCCCAUCAGGAUUUUAUCGGUGUACGAAGUUUCAGCUUGGUCCGUAUGUGUGGUGCCACCGGGCUGAAGCUUCGUGCAC
B15: hsa-mir-4514 (structured_RNA)
RNA: GGGAAACAGAGUGCGGUCGUAUGGCGAAGGUGUACGAAGUUUCAGCGAAACAUCUUUUACGCUGAAGCUUCGUGCAC
B16: hsa-mir-6125 (structured_RNA)
RNA: GGGAUACUGGUGAGUAGUACCCGUGGUCGGUGUACGAAGUUUCAGCCCGCUAGUGGAAGAAGAUGGCGGGCUGAAGCUUCGUGCAC
B17: NEAT1_ParasoR_ID24 (structured_RNA)
RNA: GGGAAAUCGCCGUGCGAAGCUAAGCUUAGGUGUACGAAGUUUCAGCUGUGGGUUGUGUUUUCACUUUAUCGAUAAUGUCCUUAGACAUAUAAUAAAUUUGUAUUUUAAAAGUGACUUGAUUUGGCUGUGCAGCUGAAGCUUCGUGCAC
B18: hsa-mir-5706 (structured_RNA)
RNA: GGGAUCCACAGCGAGGAGUUUCGAGACAGGUGUACGAAGUUUCAGCAGCUUCUACGUCAUUCAGCACUUGCUGCUGAAGCUUCGUGCAC
B19: hsa-mir-4770 (structured_RNA)
RNA: GGGAACUAGUCGGGACACCGAUAAUAACGGUGUACGAAGUUUCAGCCUAUCCUUCCCUUGGAAAAUGAUCUGAGGCUGAAGCUUCGUGCAC
B20: hsa-mir-4740 (structured_RNA)
RNA: GGGAAACCACUAGCGAUACCGAAGAUGAGGUGUACGAAGUUUCAGCGGGCAGGGAGUCAGAGGGGACCGCCCGCUGAAGCUUCGUGCAC
B21: hsa-mir-6736 (structured_RNA)
RNA: GGGAAUAAAGACGGGAAGGCUCAGAAUAGGUGUACGAAGUUUCAGCCUGUGGUUUGCUGGCUGCCUCAGGCUGAAGCUUCGUGCAC
B22: hsa-mir-297 (structured_RNA)
RNA: GGGACGAGACCCAGGUACAAUCAUAAAUGGUGUACGAAGUUUCAGCCAUGUAUGUGUAUAUACAUAUAUAUGGCUGAAGCUUCGUGCAC
B23: hsa-mir-3941 (structured_RNA)
RNA: GGGACAAGUGGUAUCUGGAGGCCUUGUCGGUGUACGAAGUUUCAGCGUAGAUUGAAAGCCCUAAUUUUACGCUGAAGCUUCGUGCAC
B24: hsa-mir-3199-2 (structured_RNA)
RNA: GGGAAGUUAAGCCUAACACCACAAGACCGGUGUACGAAGUUUCAGCAGUUUCUGGAAUGUCAGAACUUCCAGAAACUGCUGAAGCUUCGUGCAC
B25: hsa-mir-548v (structured_RNA)
RNA: GGGACAUCCGAGACGGGAGUGAAAACUAGGUGUACGAAGUUUCAGCGGUUUUGCCAUCAUGCCAAAAGCUGCUGAAGCUUCGUGCAC
B26: hsa-mir-548ba (structured_RNA)
RNA: GGGAACCCCAACAAUAAGAUAUCCUGCGGGUGUACGAAGUUUCAGCUGCUAUUAGAAAGUAAUGGCAGCUGAAGCUUCGUGCAC

One test addresses T1, LIN28A. Description: FOREST: bead pull-down of RNA structure library v1, barcode microarray; U1A/LIN28A: 20 mM HEPES pH 7.5, 80 mM KCl, 20 mM NaCl, 10% glycerol, 2 mM DTT, 0.1 ug/uL BSA, 4 C; BG4/CIRBP/DHX36: 10 mM Tris-HCl pH 7.5, 100 mM KCl (or LiCl),; high values mean tight binding.
In turn, B1 displayed a binding signal of 0.86 z-score.
With B2, the binding signal came to 0.906 z-score.
Turning to B3, the binding signal came to 0.928 z-score.
B4 yielded a binding signal of 0.884 z-score.
Still for that read-out and setting: to B5 belongs 0.971 z-score; to B6, 0.958 z-score; to B7, 0.987 z-score.
The molecule B8 registered a binding signal of 0.879 z-score.
Regarding B9, the binding signal came out at 0.973 z-score.
Same read-out and setting: with B10 the figure was 0.875 z-score.
Still for that read-out and setting: to B11 belongs 0.93 z-score.
B12 had a binding signal of 0.962 z-score.
B13: the binding signal turned out to be 0.955 z-score.
The same measure, in the same setting: to B14 belongs 0.892 z-score; to B15, 0.875 z-score; to B16, 0.943 z-score.
Consider B17, for which the binding signal came out at 1.01 z-score.
In the case of B18, the binding signal came out at 0.98 z-score.
Same read-out and setting: to B19 belongs 0.874 z-score; to B20, 1 z-score.
B21 returned a binding signal of 0.973 z-score.
In turn, B22 yielded a binding signal of 0.967 z-score.
B23 showed a binding signal of 0.941 z-score.
Molecule B24 had a binding signal of 0.864 z-score.
The same measure, in the same setting: to B25 belongs 0.895 z-score.
Regarding B26, the binding signal amounted to 0.916 z-score.

Another test deals with T2, CIRBP. The description is as above.
B1 gave a binding signal of 0.0489 z-score.
The molecule B2 gave a binding signal of -0.0998 z-score.
B3: the binding signal turned out to be 1 z-score.
On the same count and under the same terms, to B4 belongs -1.06 z-score; to B5, 1.45 z-score; to B6, -0.0109 z-score.
The molecule B7 returned a binding signal of 1.65 z-score.
B8 displayed a binding signal of -2.29 z-score.
Still for that read-out and setting: to B9 belongs 0.0186 z-score; to B10, 1.5 z-score.
For the molecule B11, the binding signal worked out at 0.631 z-score.
For B12, the binding signal is -0.496 z-score.
In turn, B13 gave a binding signal of 0.771 z-score.
In turn, B14 showed a binding signal of -0.533 z-score.
On to B15, for which the binding signal was determined as 1.14 z-score.
Still for that read-out and setting: to B16 belongs -0.88 z-score.
Molecule B17 returned a binding signal of -1.63 z-score.
Still for that read-out and setting: with B18 the figure was 1.25 z-score; with B19, -0.346 z-score.
In the case of B20, the binding signal stood at 0.875 z-score.
Still for that read-out and setting: to B21 belongs 2.3 z-score; to B22, -0.197 z-score; to B23, 0.132 z-score.
With B24, the binding signal was found to be 0.858 z-score.
Still for that read-out and setting: to B25 belongs 0.853 z-score.
In the case of B26, the binding signal stood at 1.37 z-score.

In the next test the target is T3, DHX36. The description is as above.
B1 registered a binding signal of -0.329 z-score.
Molecule B2 displayed a binding signal of 0.725 z-score.
Same read-out and setting: with B3 the figure was 0.547 z-score; with B4, 0.953 z-score.
B5 displayed a binding signal of 1.93 z-score.
B6 yielded a binding signal of -0.972 z-score.
In the case of B7, the binding signal was 0.603 z-score.
Regarding B8, the binding signal was -0.319 z-score.
B9 gave a binding signal of 0.235 z-score.
B10 yielded a binding signal of 0.398 z-score.
On to B11, for which the binding signal worked out at 1.76 z-score.
Still for that read-out and setting: with B12 the figure was 0.199 z-score.
The same measure, in the same setting: to B13 belongs -0.282 z-score.
B14 displayed a binding signal of -0.405 z-score.
With B15, the binding signal was -0.592 z-score.
Same read-out and setting: with B16 the figure was 0.248 z-score; with B17, -0.0615 z-score.
B18 came in with a binding signal of -0.0971 z-score.
B19 showed a binding signal of -0.239 z-score.
On the same count and under the same terms, to B20 belongs 1.59 z-score; to B21, 1.37 z-score.
In turn, B22 came in with a binding signal of 0.209 z-score.
Turning to B23, the binding signal was -0.555 z-score.
Consider B24, for which the binding signal came out at 0.304 z-score.
B25 yielded a binding signal of 0.54 z-score.
Consider B26, for which the binding signal is 0.565 z-score.
